# scFv variants of Ab-14 (light chain) against a SARS-CoV-2 spike peptide

The measurements come from Li et al. 2023 (doi:10.1038/s41467-023-39022-2) through the FLAb antibody collection.

The target is the same throughout: PDVDLGDISGINAS, from the HR2 region of SARS-CoV-2 spike.

The variants keep the heavy chain, the linker and the frameworks of Ab-14 (scFv order VH, three GGGGS repeats, VL).
VH: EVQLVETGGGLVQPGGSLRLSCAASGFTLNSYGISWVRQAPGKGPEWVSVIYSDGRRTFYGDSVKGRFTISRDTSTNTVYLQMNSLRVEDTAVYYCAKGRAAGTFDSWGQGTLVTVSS
VL: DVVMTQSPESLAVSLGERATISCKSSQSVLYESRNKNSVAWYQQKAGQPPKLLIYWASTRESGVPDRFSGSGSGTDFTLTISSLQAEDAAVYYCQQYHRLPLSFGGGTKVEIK

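Phage display of a naive human antibody library on the peptide gave the parent. Designed CDR sequences, proposed from the first random library and measured here. Their group label is 14L_GP_HC (GP: Gaussian process model; HC: hill climbing; a sequence that several methods proposed may carry one label only). The scFvs were displayed on barcoded MATa yeast, the peptide on MATalpha yeast. Pairs that bind mate more often; barcode pairs of the diploids are counted by sequencing. Read counts were normalised to the haploid input and turned into Kd by a linear fit to BCL2-family pairs of known affinity, for each replicate. The assay was run in six technical replicates.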

Each variant is given by its three light chain CDRs, as the data file delimits them; those of the parent are KSSQSVLYESRNKNSVA, WASTRES, QQYHRLPLS.
The read-out is the apparent dissociation constant on a log10 scale (nM): the lower, the stronger.
"nd" marks a missing value. The strain was present, yet no cells mated with the target were sequenced in that replicate, which points to weak or no binding.
The parent sequence was in this pool as ten entries: three were never detected, three once, and four in most replicates, with averages from 0.34 to 2.37.
The authors' rule: three or more of the six replicates give a measured affinity, fewer mean a poor binder.
The range of this assay differs from that of the first round, and the authors advise against merging the two.
As a blank, each scFv also met three strains without target: over all light chain designs, 4% of these pairings were detected, typically at 2.64 and seldom below 1.59. For each scFv, signals with the empty controls are counted beside the result, with their mean in brackets.

{"CDR-L1": "KSSESVLFESRNKNSVA", "CDR-L2": "NASTRES", "CDR-L3": "QQYHRLPLS", "replicates, log10 nM": "0.85 / 0.85 / 0.89 / 0.56 / 0.84 / 1.03", "control signals": "2/18 (3.07)"}
{"CDR-L1": "KLRMSTLYESRNKNSVA", "CDR-L2": "NASTRES", "CDR-L3": "QQYHRLPLS", "replicates, log10 nM": "0.58 / 0.17 / 0.39 / 0.03 / 0.22 / 0.37", "control signals": "0/18"}
{"CDR-L1": "NSSQSWLYESRNKNSVA", "CDR-L2": "EGNTRES", "CDR-L3": "QQYHRLPLS", "replicates, log10 nM": "-0.15 / -0.04 / -0.20 / -0.05 / -0.13 / 0.11", "control signals": "2/18 (3.21)"}
{"CDR-L1": "IISQSVLMESRNKNSVA", "CDR-L2": "DASTRES", "CDR-L3": "QQYHRLPLS", "replicates, log10 nM": "0.25 / -0.01 / 0.03 / -0.20 / -0.13 / 0.24", "control signals": "1/18 (2.03)"}
{"CDR-L1": "NSSQSWLYESRNKNSVA", "CDR-L2": "GGSTRES", "CDR-L3": "QQYHRLPLS", "replicates, log10 nM": "0.39 / 0.25 / -0.36 / 0.06 / -0.01 / 0.08", "control signals": "1/18 (2.12)"}
{"CDR-L1": "KSQQSYHYESRNKNSVA", "CDR-L2": "GASTRES", "CDR-L3": "QQYHRLPLS", "replicates, log10 nM": "1.15 / 1.06 / 1.75 / 0.79 / 1.37 / 1.90", "control signals": "0/18"}
{"CDR-L1": "HLSDSVLYESRNKNSVA", "CDR-L2": "NASTRES", "CDR-L3": "QQYHRLPLQ", "replicates, log10 nM": "-0.19 / -0.07 / -0.58 / -0.48 / -0.26 / -0.03", "control signals": "2/18 (2.23)"}
{"CDR-L1": "KFSQSFLYESRNVNSVA", "CDR-L2": "GASTRDS", "CDR-L3": "QQYHRLPLS", "replicates, log10 nM": "-0.10 / -0.17 / -0.36 / -0.34 / -0.07 / -0.07", "control signals": "0/18"}
{"CDR-L1": "HSSPSVLYESRNKNSVA", "CDR-L2": "NASTREA", "CDR-L3": "QQYHRLPLQ", "replicates, log10 nM": "0.21 / 0.24 / 0.06 / 0.10 / 0.12 / 0.41", "control signals": "0/18"}
{"CDR-L1": "HSSPSVLYESRNGNSVA", "CDR-L2": "NASTRER", "CDR-L3": "QQYHRLPLS", "replicates, log10 nM": "0.79 / 0.77 / 0.84 / 0.57 / 0.79 / 1.16", "control signals": "0/18"}
{"CDR-L1": "KSSGSWLYESRNKNSVA", "CDR-L2": "HASTREQ", "CDR-L3": "QQYHRLPLS", "replicates, log10 nM": "1.36 / 0.51 / 0.12 / 1.49 / 0.64 / 0.93", "control signals": "0/18"}
{"CDR-L1": "KQSQSVLMESRNSNSVA", "CDR-L2": "DASTRES", "CDR-L3": "QQYVRLPLS", "replicates, log10 nM": "0.32 / 0.22 / 0.25 / 0.05 / 0.26 / 0.10", "control signals": "1/18 (2.05)"}
{"CDR-L1": "KLSQSFLYESRWKNSVA", "CDR-L2": "GASTRES", "CDR-L3": "QQYHRLPLS", "replicates, log10 nM": "0.60 / 0.60 / 0.64 / 0.05 / 0.05 / 0.57", "control signals": "0/18"}
{"CDR-L1": "KTGQGVLYESRNKNSVA", "CDR-L2": "GASVRES", "CDR-L3": "QQYHRLPLS", "replicates, log10 nM": "-0.01 / 0.05 / -0.02 / -0.12 / -0.35 / -0.16", "control signals": "0/18"}
{"CDR-L1": "KWLQSVLYESRNKNSVA", "CDR-L2": "HASTRED", "CDR-L3": "QQYGRLPLS", "replicates, log10 nM": "nd / nd / nd / nd / nd / nd", "control signals": "0/18"}
{"CDR-L1": "KSLQSVLYESRNFNSVA", "CDR-L2": "DASTRED", "CDR-L3": "QQYHRLPLS", "replicates, log10 nM": "0.45 / 0.34 / 0.15 / 0.03 / 0.43 / 0.21", "control signals": "1/18 (3.31)"}
{"CDR-L1": "KFGQGVLYESRVKNSVA", "CDR-L2": "GASTRES", "CDR-L3": "QQYHRLPLS", "replicates, log10 nM": "0.09 / -0.25 / -0.19 / -0.25 / 0.01 / 0.05", "control signals": "1/18 (2.10)"}
{"CDR-L1": "KSSWSVLYESNNVNSVA", "CDR-L2": "NASTRED", "CDR-L3": "QQYHRLPLS", "replicates, log10 nM": "0.84 / 0.83 / 0.34 / 0.35 / 0.58 / 0.80", "control signals": "1/18 (3.45)"}
{"CDR-L1": "KQSQSDLCESRNKNSVA", "CDR-L2": "DASTRES", "CDR-L3": "QQYHRLPLS", "replicates, log10 nM": "0.24 / 1.17 / 2.12 / 0.53 / 0.93 / 0.49", "control signals": "3/18 (1.67)"}
{"CDR-L1": "KHLQSVLYESRNKNSVA", "CDR-L2": "HASTRED", "CDR-L3": "QQYHQLPLS", "replicates, log10 nM": "0.06 / 0.09 / 0.05 / -0.07 / 0.16 / 0.05", "control signals": "4/18 (2.97)"}
{"CDR-L1": "KSSSSVLYESGNKNSVA", "CDR-L2": "HASTRED", "CDR-L3": "QQYHRLPLS", "replicates, log10 nM": "0.05 / 0.40 / 0.11 / 0.35 / 0.17 / 0.41", "control signals": "2/18 (2.45)"}
{"CDR-L1": "KSSTSYLEESRNKNSVA", "CDR-L2": "EASTRES", "CDR-L3": "QQYHRLPLS", "replicates, log10 nM": "0.17 / 0.07 / -0.01 / -0.07 / -0.06 / 0.19", "control signals": "2/18 (2.89)"}
{"CDR-L1": "KFSQSVAYESRNKNSVA", "CDR-L2": "NASTRES", "CDR-L3": "QQYHRLPLS", "replicates, log10 nM": "-0.05 / -0.33 / -0.38 / -0.46 / -0.29 / -0.16", "control signals": "0/18"}
{"CDR-L1": "KSLQGVLYESRNKNSVA", "CDR-L2": "GASQRES", "CDR-L3": "QQYHRLPLS", "replicates, log10 nM": "0.33 / -0.05 / -0.28 / 0.09 / -0.10 / 0.23", "control signals": "1/18 (2.80)"}
{"CDR-L1": "KLMQSWLYESRNKNSVA", "CDR-L2": "HASLRED", "CDR-L3": "QQYHRLPLS", "replicates, log10 nM": "0.86 / 0.52 / 0.38 / 0.21 / 0.17 / 0.44", "control signals": "2/18 (2.59)"}
{"CDR-L1": "DVSQSWLYESRNKNSVA", "CDR-L2": "GASTRES", "CDR-L3": "QQYHRLPLS", "replicates, log10 nM": "-0.01 / -0.20 / -0.21 / -0.39 / -0.23 / -0.09", "control signals": "3/18 (3.25)"}
{"CDR-L1": "KQSQSVGYESRNKNSVA", "CDR-L2": "DASTRSS", "CDR-L3": "QQYHRLPLS", "replicates, log10 nM": "-0.35 / -0.33 / -0.23 / -0.46 / -0.45 / -0.17", "control signals": "2/18 (3.32)"}
{"CDR-L1": "KSSISYLYESGNKNSVA", "CDR-L2": "EASQRES", "CDR-L3": "QQYHRLPLS", "replicates, log10 nM": "0.55 / 0.69 / 0.27 / 0.51 / 0.44 / 0.53", "control signals": "0/18"}

The opening 3 entries, copied out:

{"CDR-L1": "KSSESVLFESRNKNSVA", "CDR-L2": "NASTRES", "CDR-L3": "QQYHRLPLS", "replicates, log10 nM": "0.85 / 0.85 / 0.89 / 0.56 / 0.84 / 1.03", "control signals": "2/18 (3.07)"}
{"CDR-L1": "KLRMSTLYESRNKNSVA", "CDR-L2": "NASTRES", "CDR-L3": "QQYHRLPLS", "replicates, log10 nM": "0.58 / 0.17 / 0.39 / 0.03 / 0.22 / 0.37", "control signals": "0/18"}
{"CDR-L1": "NSSQSWLYESRNKNSVA", "CDR-L2": "EGNTRES", "CDR-L3": "QQYHRLPLS", "replicates, log10 nM": "-0.15 / -0.04 / -0.20 / -0.05 / -0.13 / 0.11", "control signals": "2/18 (3.21)"}